Read-outs that look alike come from different tables or passages of the source.
Molecular target: T1, Aurora1 (Aurora-B) (Homo sapiens, UniProt Q96GD4)
T1 construct: Aurora-B: the full length protein (His tagged in N-terminal) has been co expressed in SF9 cells; poly-histidine (N); made in house; host or cells: SF9 cells
Assay: Aurora 1 (Aurora B) kinase radioactivity scintillation assay using nickel chelate Flash plates
Type: biochemical
Conditions: 10 nM Aurora-B (co expressed with C3 fragment of INCEP), 500 nM NuMA substrate, 1 μM ATP with [33P] ATP, 5 mM MgCl2, 30 minutes, 37° C.

By UniProt entry, the sequences of proteins in these tests, tags left out.
UniProt Q96GD4, whole entry, species assumed: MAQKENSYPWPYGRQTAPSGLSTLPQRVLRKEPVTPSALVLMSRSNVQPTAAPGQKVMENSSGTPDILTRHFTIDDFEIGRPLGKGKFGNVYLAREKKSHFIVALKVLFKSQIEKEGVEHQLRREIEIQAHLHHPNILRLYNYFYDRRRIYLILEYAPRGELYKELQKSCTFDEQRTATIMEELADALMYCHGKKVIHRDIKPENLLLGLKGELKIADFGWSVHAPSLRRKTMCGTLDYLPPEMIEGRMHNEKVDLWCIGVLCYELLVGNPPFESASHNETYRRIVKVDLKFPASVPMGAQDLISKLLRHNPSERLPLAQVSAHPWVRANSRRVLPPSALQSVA

| SMILES | IC50 (Aurora1 IC50 (nM)) | IC50 (read-out: Aurora1 IC50) |
| --- | --- | --- |
| CCOC(=O)c1[nH]cc2c1NC1=C(C(=O)CCC1)C2c1ccc(Sc2nc3ccccc3[nH]2)o1 (single isomer, unassigned; (+)) [119a (+), (+)-9-[5-(1H-Benzimidazol-2-ylsulfanyl)-furan-2-yl]-8-oxo-4,5,6,7,8,9-hexahydro-2H-pyrrolo[3,4-b]quinoline-3-carboxylic acid ethyl ester] | 3 nM | – |
| CCOC(=O)c1[nH]cc2c1NC1=C(C(=O)CCC1)C2c1ccc(Sc2nc3ccccc3[nH]2)o1 (single isomer, unassigned; (-)) [119b (−), (−)-9-[5-(1H-Benzimidazol-2-ylsulfanyl)-furan-2-yl]-8-oxo-4,5,6,7,8,9-hexahydro-2H-pyrrolo[3,4-b]quinoline-3-carboxylic acid ethyl ester] | – | 483 nM |
| CCOC(=O)c1[nH]cc2c1NC1=C(C(=O)CCC1)C2c1ccc(Sc2nc3ccccc3[nH]2)o1 (stereo not drawn) [Example 105, 9-[5-(1H-Benzimidazol-2-ylsulfanyl)-furan-2-yl]-8-oxo-4,5,6,7,8,9-hexahydro-2H-pyrrolo[3,4-b]quinoline-3-carboxylic acid ethyl ester; compound with trifluoro-acetic acid] | – | 7 nM |

Source: patent publication US8163768B2, “1,4-dihydropyridine-fused heterocycles, process for preparing the same, use and compositions containing them” (Aventis Pharma S.A.., priority 2005, dated 2012)
